Source: patent US20150376198A1, “MODULATORS OF VASOPRESSIN RECEPTORS WITH THERAPEUTIC POTENTIAL” (priority 2013, published 2015)
pIC50: −log10 of the molar value. Some compounds may have been tested in ways that are not shown here.

Amino acid sequences for entries named in this document (tags omitted).
UniProt P37288, whole entry: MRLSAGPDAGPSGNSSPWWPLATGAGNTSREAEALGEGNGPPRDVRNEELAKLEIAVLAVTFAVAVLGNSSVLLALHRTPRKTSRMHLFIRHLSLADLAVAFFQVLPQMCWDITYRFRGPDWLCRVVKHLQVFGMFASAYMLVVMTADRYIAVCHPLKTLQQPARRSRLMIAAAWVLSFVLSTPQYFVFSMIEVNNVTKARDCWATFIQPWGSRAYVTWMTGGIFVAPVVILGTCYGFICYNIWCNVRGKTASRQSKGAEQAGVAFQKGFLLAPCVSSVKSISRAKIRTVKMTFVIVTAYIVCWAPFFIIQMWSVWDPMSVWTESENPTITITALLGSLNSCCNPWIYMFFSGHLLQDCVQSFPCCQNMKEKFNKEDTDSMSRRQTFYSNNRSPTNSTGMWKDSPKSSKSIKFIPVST

Target: human Arginine Vasopressin Receptor 1a (AVPR1a) (Homo sapiens, UniProt P37288)
Test: V1a-R Antagonist Assay (AVPR1a-NFAT-bla CHO-K1 beta-lactamase reporter, FRET)
Assay type: cell-based
Settings: read-out: V1a-R IC50; Table 4, compounds of formula (I)

Compound	pIC50
CCC(=O)N(c1ccccc1)C1CCN(C(=O)c2ccc(C#N)cc2)CC1	< 4.30
CCC(=O)N(c1ccccc1)C1CCN(C(=O)c2cc3cc(Cl)ccc3[nH]2)CC1	4.43
